Experimental data taken from publication PMC4629110 (Acta Pharmaceutica Sinica. B, 2014).

Chains of the proteins cited; added tags and fusions are not shown. Residues count along the entry.
UniProt P06276, 29-602: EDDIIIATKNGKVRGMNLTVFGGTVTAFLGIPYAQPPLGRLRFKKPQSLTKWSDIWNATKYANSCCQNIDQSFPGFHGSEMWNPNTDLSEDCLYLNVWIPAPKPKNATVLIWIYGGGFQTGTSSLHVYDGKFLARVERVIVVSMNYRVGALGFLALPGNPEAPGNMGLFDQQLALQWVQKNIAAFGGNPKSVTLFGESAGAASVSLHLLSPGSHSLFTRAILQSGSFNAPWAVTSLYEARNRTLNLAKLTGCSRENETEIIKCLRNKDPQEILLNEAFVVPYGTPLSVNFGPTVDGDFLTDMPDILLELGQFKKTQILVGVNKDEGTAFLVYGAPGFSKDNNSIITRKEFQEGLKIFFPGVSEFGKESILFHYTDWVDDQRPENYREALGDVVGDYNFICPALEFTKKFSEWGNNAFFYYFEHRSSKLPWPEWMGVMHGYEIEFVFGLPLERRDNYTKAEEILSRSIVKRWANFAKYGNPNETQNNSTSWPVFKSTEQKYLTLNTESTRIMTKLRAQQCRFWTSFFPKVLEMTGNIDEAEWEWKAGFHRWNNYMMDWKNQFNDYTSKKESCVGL

Target: BuChE (Homo sapiens, UniProt P06276)
Assay: In vitro BuChE inhibition assay
Format: biochemical

## CC(C)NP(=O)(NC(C)C)OP(=O)(NC(C)C)NC(C)C [ISO-OMPA, tetraisopropyl pyrophosphoramide]
  IC50: 2.44 ± 0.17 µM
